Screening results as filed in PubChem.
UUG fidelity = yeast start codon fidelity modulation | S. cerevisiae UUG-firefly luciferase reporter, luminescence/redox ratio | activity score, % at 18.7 µM | 350,000 tested, 0.13% active;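 active = replicate mean at a twofold rise or more, about +100% in these data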;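 also: firefly luciferase made from a UUG start codon reports start codon fidelity; reporter light over untreated wells divided by growth signal over untreated wells; some hits fall short of that in this replicate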
S100A4 inh HTS = inhibitors of human S100A4 binding to myosin IIA peptide; P26447; S100A4/TAMRA-MyoIIA peptide fluorescence polarization; inhibition, % at 10.7 µM; 0.14% of 360,000 active;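 active = mean inhibition of at least 70% across replicates, with every replicate also reaching that level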
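Material: S100A4 monomer protein / Buffer or medium: 50 mM HEPES pH 7.2, 10 mM CaCl2, 100 mM KCl / Times: 5 min incubation before reading / Benchmarks: neutral control DMSO, positive control TFP / Reagent: labelled myosin peptide probe, 5 nM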
AF4-AF9 inh = blocks AF4 peptide binding to human AF9. P42568. AlphaScreen, biotin-AF4 peptide binding to FLAG-AF9. inhibition, % at 10 µM. 0.47% of 350,000 active. AID 651704;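 active = every replicate reaching a set inhibition limit, whatever the replicate mean, cut at about 25% in these data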
E-sel inducer = induces E-selectin expression in human endothelial cells. P16581. HUVEC E-selectin immunofluorescence imaging; normalized: neutral wells 0, TNF-alpha wells 100. activation, % at 7.58 µM. 0.37% of 260,000 active. AID 686992;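 active = mean E-selectin-positive cell signal at least 10% of the positive control, reached in at least 60% of replicates, without over 20% cell loss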
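material = human umbilical vein endothelial cells (HUVEC), E-selectin induction | quantity = 3,000 cells/well | medium = EGM-2 growth medium on 0.1% gelatin-coated wells | technique = immunofluorescence imaging | read-out basis = % PE-positive cells | control set = TNF-alpha positive control, DMSO neutral control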
ERAP1 HTS inh = inhibitors of human ERAP1 aminopeptidase; 0.15% of 340,000 active; Q9NZ08; inhibition, % at 10.7 µM; AID 652197; recombinant ERAP1, Leu-AMC fluorescence, 60 min;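 active = mean replicate inhibition of at least 30%, or all replicates individually reaching that 30% level; inactive = mean below 30% and not every replicate reaching it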
ARNT-TACC3 inh = disruptors of human ARNT/TACC3 interaction; Q9Y6A5; AlphaScreen His-ARNT PAS-B/GST-TACC3 binding, luminescence; TACC3 fragment carries E629A point mutation; inhibition, % at 9.99 µM; 0.66% of 390,000 active; AID 623870;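 active = mean inhibition of replicates at least 50% and at least half of replicates each reaching 50%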
Hits are given with their value; n = inactive; x = no result; ! = not active in a repeat. This is a sample that favours compounds with a hit; in the whole collection about 1.3% have one here.

SMILES	UUG fidelity	S100A4 inh HTS	AF4-AF9 inh	E-sel inducer	ERAP1 HTS inh	ARNT-TACC3 inh
Cc1cc(N2CCOCC2)ccc1/C=C1\SC(=O)N(C(C)C)C1=O	n	x	x	x	x	n
COc1ccc(S(=O)(=O)Nc2ccc3c(c2)C(=O)N([C@@H](C)CO)C[C@H](C)[C@@H](CN(C)S(=O)(=O)c2cccs2)OCCCC[C@H](C)O3)cc1	n	n	n	x	n	n
COc1ccccc1N1CCN(CCCNC(=O)Nc2ccccc2C)CC1	n	x	x	x	x	n
COc1ccccc1NC(=O)NCCCN1CCN(c2cccc(Cl)c2)CC1	n	n	n	n	n	48
O=C(CSC1=NNC(c2ccccn2)S1)Nc1ccc(C(F)(F)F)cc1 (stereo not drawn)	n	n	n	n	n	76
COc1cc(CNCc2ccccn2)ccc1OCC(N)=O	n	n	n	x	n	49
COc1cc(CNCc2ccccn2)ccc1OCc1ccc(Cl)c(Cl)c1	n	n	n	n	n	n
CN(C)C(=O)C[C@@H]1CC[C@H](NC(=O)C2CC2)[C@@H](CO)O1	n	n	n	x	n	n
O=C(NNS(=O)(=O)c1ccc(F)cc1)c1cccc(O)c1	n	n	n	x	n	n
Cc1ccc(S(=O)(=O)NNC(=O)c2cccc(O)c2)cc1	x	n	48	73	n	n
C[C@@H]1CN([C@@H](C)CO)C(=O)c2cc(C#Cc3ccccn3)cnc2O[C@@H]1CN(C)CC1CCCC1	x	x	x	n	x	x
CNC(=S)N/N=C/c1cc(Br)cc(Br)c1O	x	x	x	x	x	48
Oc1c(Br)cc(Br)cc1/C=N/NC(=S)N[C@H]1CC2C=CC1C2 (stereo partly drawn)	n	n	n	n	n	n
Oc1ccccc1/C=N/Nc1ccccc1	x	n	n	n	n	n
NC(=S)NN=Cc1nccc2c(C(F)(F)C(F)(F)C(F)(F)F)cccc12	n	n	n	n	n	x
Oc1ccccc1C=NNC(=S)NN=Cc1ccccc1O	n	n	n	n	n	61
NC(=S)NN=Cc1nccc2ccccc12	n	n	n	n	n	77
NC(=S)N/N=C/c1ccccc1O	n	n	n	n	n	73
NC(=S)N/N=C/c1cccc(O)c1O	x	n	n	n	n	x
Cc1cc(/C=N/NC(N)=S)c(O)c(/C=N/NC(N)=S)c1	n	n	n	n	n	66
Cc1ccc(-n2c(C)cc(/C=N/NC(N)=S)c2C)cc1	x	x	x	n	x	n
COC1C=COC2(C)Oc3c(C)c(O)c4c(O)c(c(CN5CCN(C)CC5)c(O)c4c3C2=O)NC(=O)C(C)=CC=CC(C)C(O)C(C)C(O)C(C)C(OC(C)=O)C1C (stereo not drawn)	x	n	n	n	n	n
CCC(C)N1CCC2(CC1)N=c1c(c3c4c5c(C)c(O)c3c(O)c1=NC(=O)C(C)=CC=C[C@H](C)[C@H](O)[C@@H](C)[C@@H](O)[C@@H](C)[C@H](OC(C)=O)[C@H](C)[C@@H](OC)C=CO[C@@](C)(O5)C4=O)N2 (stereo partly drawn)	n	n	27	n	n	n
O=C(C[C@@H]1CC[C@H]2[C@@H](COC[C@@H](O)CN2Cc2nccs2)O1)NCc1ccccc1	x	n	n	n	n	n
O=C(C[C@H]1C=C[C@@H](NC(=O)c2ccccn2)[C@@H](CO)O1)NCc1cc(F)cc(F)c1	x	n	n	n	x	n
SMILES	UUG fidelity	S100A4 inh HTS	AF4-AF9 inh	E-sel inducer	ERAP1 HTS inh	ARNT-TACC3 inh
COCCN(CC(=O)Nc1cccc(C)c1C)C(=O)CN1C(=O)NC2(CCCCC2)C1=O	n	n	n	n	45	x
C[C@H](NC(=O)C[C@@H]1CC[C@@H]2[C@H](COC[C@H](O)CN2C(=O)Nc2ccccc2)O1)c1ccccc1	n	n	n	n	n	n
CNCCC=C1c2ccccc2CCc2ccccc21	n	n	38!	n	n	n
Cc1c(Cl)cccc1NC(=O)c1ncn[nH]1	n	n	n	x	n	73
Cc1ccc(NC(=O)c2ncn[nH]2)cc1	x	n	n	x	n	n
Cc1ccc(S(=O)(=O)N(C)C[C@@H]2Oc3ccc(NC(=O)Nc4cccc5ccccc45)cc3C(=O)N([C@@H](C)CO)C[C@@H]2C)cc1	x	x	x	n	x	x
CCC(=O)N1CC2(CN(Cc3ccc(Cl)cc3)C2)c2c(n(C)c3cc(OC)ccc23)[C@H]1CO	x	n	29	n	n	x
CCC(=O)N1CC2(CN(Cc3ccc(Cl)cc3)C2)c2c(n(C)c3cc(OC)ccc23)[C@@H]1CO	x	n	38	n	n	x
CCCNC(=O)N1CC2(CN(CC3CCCC3)C2)c2c(n(C)c3cc(OC)ccc23)[C@H]1CO	x	n	28	n	n	x
CCC(=O)N1CC2(CN(Cc3ccc(F)cc3)C2)c2c(n(C)c3cc(OC)ccc23)[C@H]1CO	x	n	n	n	n	x
CCc1c(C)c2cc(Cl)c(O)c(CN(CC)CC)c2oc1=O	n	n	n	x	85	n
COc1ccc(-c2cc(C(F)(F)F)nc(S(=O)(=O)CCCC(=O)Nc3cccnc3Cl)n2)cc1OC	x	n	n	n	50	n
COC(=O)CCS(=O)(=O)c1nc(-c2ccccc2)cc(C(F)(F)F)n1	x	x	x	x	x	n
NS(=O)(=O)c1ccc(N/N=C2/CCCCC2C2CCCCC2)c([N+](=O)[O-])c1 (stereo not drawn)	x	n	30	x	n	n
Cc1noc(C)c1NC(=O)Nc1cccc2c1O[C@H](CN(C)Cc1ccncc1)[C@@H](C)CN([C@H](C)CO)C2=O	x	n	n	x	n	x
COc1ccc(CN(C)C[C@H]2Oc3ccc(NS(C)(=O)=O)cc3C(=O)N([C@@H](C)CO)C[C@H]2C)cc1	n	n	n	n	n	n
CCC(=O)N1C[C@@H](C)[C@@H](OC)CN(C)C(=O)c2ccc(NC(=O)Nc3cccc(F)c3)cc2OC[C@H]1C	n	n	n	n	n	n
CCC(=O)N1C[C@H](C)[C@@H](OC)CN(C)C(=O)c2ccc(NC(=O)Nc3ccccc3)cc2OC[C@H]1C	n	124	n	n	n	n
CCCNC(=O)Nc1ccc2c(c1)OC[C@@H](C)N(C(=O)C1CC1)C[C@H](C)[C@@H](OC)CN(C)C2=O	n	98	n	n	n	n
CCCC#Cc1ccc([C@@H]2[C@H](CO)N3C(=O)CN(C(=O)Nc4cccc(F)c4)C[C@@H]23)cc1	x	n	n	n	n	x
COc1ccc2c3c(n(C)c2c1)[C@@H](CO)N(C(=O)Cc1ccccc1)CC31CN(C)C1	x	n	n	n	n	x
C[C@@H]1CN([C@@H](C)CO)S(=O)(=O)c2ccc(C#CC3(O)CCCC3)cc2O[C@H]1CN(C)C(=O)c1ccccc1	n	n	n	n	n	n
Cc1nc2ccc(NC(=O)c3ccccc3)cc2s1	x	n	n	n	n	n
Cc1nc2ccc(NC(=O)c3ccc(=O)[nH]c3)cc2s1	n	n	n	n	37	n
